Assay results from US20160214996A1, “MACROCYCLIC COMPOUNDS FOR THE TREATMENT OF PROLIFERATIVE DISEASES” (CS Pharmasciences, Inc., priority 2013, published 2016).

Amino acid sequences for entries named in this document (tags omitted). A change or cut given only in a name is not applied to a line headed by its entry. Residues count along the entry.
UniProt Q9UM73, 19-1620 limits assumed: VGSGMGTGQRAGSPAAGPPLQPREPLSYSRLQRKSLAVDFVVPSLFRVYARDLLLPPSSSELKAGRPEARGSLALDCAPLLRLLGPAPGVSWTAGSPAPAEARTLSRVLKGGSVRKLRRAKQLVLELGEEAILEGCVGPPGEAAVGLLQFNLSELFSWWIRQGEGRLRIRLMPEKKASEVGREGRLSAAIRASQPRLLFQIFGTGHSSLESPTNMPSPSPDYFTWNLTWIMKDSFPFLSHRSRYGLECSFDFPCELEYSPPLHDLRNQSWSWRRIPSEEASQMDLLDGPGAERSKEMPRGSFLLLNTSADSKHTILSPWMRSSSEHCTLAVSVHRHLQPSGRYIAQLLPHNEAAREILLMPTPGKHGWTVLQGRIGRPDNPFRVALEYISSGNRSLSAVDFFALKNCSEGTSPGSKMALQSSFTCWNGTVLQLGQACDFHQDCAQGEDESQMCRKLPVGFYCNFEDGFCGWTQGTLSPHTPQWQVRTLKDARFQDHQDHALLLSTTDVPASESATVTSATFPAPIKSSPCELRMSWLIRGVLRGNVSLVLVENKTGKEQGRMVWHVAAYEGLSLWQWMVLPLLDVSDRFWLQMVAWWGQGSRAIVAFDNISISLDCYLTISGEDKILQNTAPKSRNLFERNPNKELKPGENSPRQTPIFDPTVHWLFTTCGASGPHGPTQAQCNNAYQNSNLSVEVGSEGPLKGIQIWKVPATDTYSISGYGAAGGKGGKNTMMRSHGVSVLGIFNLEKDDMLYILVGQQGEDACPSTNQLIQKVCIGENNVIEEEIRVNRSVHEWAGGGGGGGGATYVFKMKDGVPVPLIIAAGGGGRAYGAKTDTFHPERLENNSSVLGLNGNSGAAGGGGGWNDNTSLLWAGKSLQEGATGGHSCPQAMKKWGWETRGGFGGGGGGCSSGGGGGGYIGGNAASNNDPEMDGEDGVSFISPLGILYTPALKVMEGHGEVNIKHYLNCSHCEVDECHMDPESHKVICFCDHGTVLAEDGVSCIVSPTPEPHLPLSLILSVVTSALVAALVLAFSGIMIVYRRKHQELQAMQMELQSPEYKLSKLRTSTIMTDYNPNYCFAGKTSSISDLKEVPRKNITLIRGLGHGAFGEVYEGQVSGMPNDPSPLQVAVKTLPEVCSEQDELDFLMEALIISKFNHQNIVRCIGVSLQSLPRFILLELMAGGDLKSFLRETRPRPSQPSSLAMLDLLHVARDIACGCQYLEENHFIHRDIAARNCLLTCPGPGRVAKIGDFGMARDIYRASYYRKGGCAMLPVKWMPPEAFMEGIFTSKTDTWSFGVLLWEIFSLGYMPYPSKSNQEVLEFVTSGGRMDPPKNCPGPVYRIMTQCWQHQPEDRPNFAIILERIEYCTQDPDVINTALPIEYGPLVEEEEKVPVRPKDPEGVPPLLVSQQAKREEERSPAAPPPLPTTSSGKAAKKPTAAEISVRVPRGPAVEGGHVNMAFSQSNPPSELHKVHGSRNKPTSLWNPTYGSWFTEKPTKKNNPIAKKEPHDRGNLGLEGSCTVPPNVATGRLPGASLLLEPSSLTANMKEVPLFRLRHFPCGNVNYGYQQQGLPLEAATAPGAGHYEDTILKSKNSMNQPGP
UniProt Q9UM73, 19-1620 L1196M limits assumed: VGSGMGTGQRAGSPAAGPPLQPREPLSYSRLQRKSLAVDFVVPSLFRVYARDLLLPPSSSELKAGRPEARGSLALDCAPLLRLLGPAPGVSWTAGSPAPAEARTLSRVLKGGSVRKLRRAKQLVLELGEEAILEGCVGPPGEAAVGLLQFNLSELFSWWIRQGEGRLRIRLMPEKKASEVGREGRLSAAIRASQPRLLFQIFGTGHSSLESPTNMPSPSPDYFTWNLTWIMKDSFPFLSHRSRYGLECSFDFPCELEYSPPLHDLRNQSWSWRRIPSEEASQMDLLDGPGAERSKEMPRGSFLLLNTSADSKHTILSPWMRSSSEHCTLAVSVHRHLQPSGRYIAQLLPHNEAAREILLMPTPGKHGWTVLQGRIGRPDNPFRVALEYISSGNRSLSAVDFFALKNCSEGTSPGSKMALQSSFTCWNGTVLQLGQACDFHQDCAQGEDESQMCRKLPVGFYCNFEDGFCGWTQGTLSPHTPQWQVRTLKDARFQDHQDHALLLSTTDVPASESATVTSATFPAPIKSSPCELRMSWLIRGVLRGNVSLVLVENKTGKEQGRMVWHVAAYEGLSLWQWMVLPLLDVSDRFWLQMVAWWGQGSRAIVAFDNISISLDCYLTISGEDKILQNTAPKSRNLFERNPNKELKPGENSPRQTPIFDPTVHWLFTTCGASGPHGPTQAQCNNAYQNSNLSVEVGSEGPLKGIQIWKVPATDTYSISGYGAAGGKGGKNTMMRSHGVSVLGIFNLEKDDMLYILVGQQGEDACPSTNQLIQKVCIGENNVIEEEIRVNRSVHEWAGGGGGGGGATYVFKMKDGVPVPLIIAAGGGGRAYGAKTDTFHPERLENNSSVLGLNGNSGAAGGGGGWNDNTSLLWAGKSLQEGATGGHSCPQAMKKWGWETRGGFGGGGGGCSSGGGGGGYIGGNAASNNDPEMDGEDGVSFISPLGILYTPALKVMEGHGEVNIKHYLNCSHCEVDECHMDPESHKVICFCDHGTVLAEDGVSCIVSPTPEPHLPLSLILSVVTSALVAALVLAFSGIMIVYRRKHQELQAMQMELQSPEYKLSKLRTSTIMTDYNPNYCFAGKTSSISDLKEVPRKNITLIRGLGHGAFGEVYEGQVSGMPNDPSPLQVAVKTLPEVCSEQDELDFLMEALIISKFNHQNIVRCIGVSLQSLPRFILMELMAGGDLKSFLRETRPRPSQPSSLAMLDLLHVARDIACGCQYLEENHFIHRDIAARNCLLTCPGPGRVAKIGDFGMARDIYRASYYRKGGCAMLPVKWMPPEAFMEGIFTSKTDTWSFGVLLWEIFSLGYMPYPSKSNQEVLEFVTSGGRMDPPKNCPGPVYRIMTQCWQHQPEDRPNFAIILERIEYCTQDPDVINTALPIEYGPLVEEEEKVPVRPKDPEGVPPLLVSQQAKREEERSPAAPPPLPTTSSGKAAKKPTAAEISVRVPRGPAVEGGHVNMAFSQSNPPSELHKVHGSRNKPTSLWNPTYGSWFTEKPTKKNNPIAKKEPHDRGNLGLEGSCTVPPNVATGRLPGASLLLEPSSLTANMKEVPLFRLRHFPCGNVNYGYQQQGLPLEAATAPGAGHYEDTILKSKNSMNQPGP

How the values were obtained:
ALK L1196M = ALK L1196M (Homo sapiens, UniProt Q9UM73, L1196M); assay: ALK L1196M standard HTRF enzyme assay; assay type: biochemical; conditions: read-out: IC50 (nM) ALK_L1196M, 0.15 nM ALK L1196M, 30 μM ATP, 60 minutes at room temperature
ALK wild type = ALK wild type (Homo sapiens, UniProt Q9UM73); assay: ALK wild type standard HTRF enzyme assay; assay type: biochemical; conditions: read-out: IC50 (nM) ALK_wt, 0.5 nM ALK wild type, 30 μM ATP, 90 minutes at room temperature

SMILES	IC50 (ALK L1196M) [nM]	IC50 (ALK wild type) [nM]
CC1Oc2cc(cnc2N)-c2c(nn(C)c2C#N)OCCOc2ccc(F)cc21 (single isomer, unassigned) [Compound 13a]	54	1.4
CC1Oc2cc(cnc2N)-c2c(nn(C)c2C#N)OCCOc2ccc(F)cc21 (single isomer, unassigned) [Compound 13b]	4470	2270
